Earlier results as cited in patent publication US12589090B2, “Compounds and methods for the treatment of degenerative disorders” (Aquilus Pharmaceuticals, Inc., priority 2019, dated 2026).

Legend:
[1] = system: SOD-1-G93A (SOD-1) strain; conditions: SOD-1-G93A mice; cited from earlier work
[2] = system: human ALS patients; conditions: stated as equivalent of the mouse survival gain; cited from earlier work

SMILES: Nc1nc2ccc(OC(F)(F)F)cc2s1 [riluzole]
- increase of mean survival in mutant mice [1]: 10 to 14 days
- increase in survival in human ALS patients [2]: ~3 month
